This assay has as its target p38 MAP Kinase a (Homo sapiens (Human), UniProt Q16539). In words: p38 MAP kinase enzyme assay (radiometric filter-binding). The assay is classed as biochemical. The method, then: The ability of compounds to inhibit p38 MAP a Kinase activity was measured in an assay performed by Upstate (Dundee UK). In a final reaction volume of 25 μL, p38 MAP Kinase a (5-10 mU) is incubated with 25 mM Tris pH 7.5, 0.002 mMEGTA, 0.33 mg/mL myelin basic protein, 10 mM MgAcetate and [g-33p-ATP] (specific activity approx. 500 cpm/pmol, concentration as required). The reaction is initiated by the addition of the MgATP mix. After incubation for 40 minutes at room temperature, the reaction is stopped by the addition of 5 μL of a 3% phosphoric acid solution. 10 μL of the reaction is then spotted onto a P30 filtermat and washed three times for 5 minutes in 75 mM phosphoric acid and once in methanol prior to drying and scintillation counting.
Duplicate data points are generated from a 1/3 log dilution series of a stock solution in DMSO. Nine dilutions steps are made from a top concentration of 10 μM, and a ‘no compound’ blank is included. The standard radiometric filter-binding assay is performed at an ATP concentration at, or close to, the Km. Data from scintillation counts are collected and subjected to free-fit analysis by Prism software.

Chains of the proteins cited; added tags and fusions are not shown.
UniProt Q16539, whole entry: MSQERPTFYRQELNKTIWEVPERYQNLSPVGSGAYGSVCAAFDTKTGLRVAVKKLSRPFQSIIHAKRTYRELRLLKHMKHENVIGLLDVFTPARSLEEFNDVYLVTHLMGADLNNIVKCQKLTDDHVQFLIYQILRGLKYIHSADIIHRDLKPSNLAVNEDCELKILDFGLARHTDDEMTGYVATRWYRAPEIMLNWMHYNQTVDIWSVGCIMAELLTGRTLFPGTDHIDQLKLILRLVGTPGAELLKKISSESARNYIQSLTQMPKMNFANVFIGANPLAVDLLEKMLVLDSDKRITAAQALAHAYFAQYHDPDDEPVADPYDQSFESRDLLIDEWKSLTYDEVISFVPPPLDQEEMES

Like-named read-outs stand apart in the source and are kept apart here.

As to `CC(C)(C)OC(=O)[C@@H](NCCc1cc(F)c(-n2c(N)c(C(=O)c3ccc(F)cc3F)ccc2=O)c(F)c1)c1ccccc1` [tert-butyl (2S)-[(2-{4-[6-amino-5-(2,4-difluoro-benzoyl)-2-oxopyridin-1(2H)-yl]-3,5-difluorophenyl}ethyl)amino] (phenyl)acetate], the 50% inhibitory concentration (IC50) worked out at 1 nM (corresponding acid (hydrolysis product of the named ester) tested, read-out: B—acid enzyme assay (p38 kinase A (invitrogen)), IC50) and 44 nM (ester tested, read-out: A—ester enzyme assay (p38 kinase A (invitrogen)), IC50).
